Data from US7348426B1, “Substituted bicyclic heterocycles, process for their preparation and their use as antiobesity and hypocholesterolemic agents” (Dr. Reddy's Laboraties Limited, priority 1999, dated 2008).

Columns and labels:
[1] = tested on: cholesterol fed Syrian Hamsters; experiment: Body weight reducing effect in cholesterol fed hamsters; format: in vivo; details: 10 mg/kg/day orally for 15 days
[2] = tested on: hypercholesterolemic Sprague Dawley rats; details: 1 mg/kg orally for 3 days

Which “Body weight Reduction (%)” value [1] does the source give for “(±) 3-[4-[2-Dihydro-1,4-benzoxazin-4-yl)ethoxy]phenyl]-2-ethoxypropanoic acid, sodium salt” here?
Its value is 12%.

And the “HDL (%) ↑ increase” value [2]?
Its value is 37%.

And the “Total Cholesterol (%) ↓ reduction” value [2]?
The value was 57%.

And the “Triglyceride (%) ↓ reduction” value [2]?
The value was 43%.

And the “LDL (%) ↓ reduction” value ([2]; LDL calculated from total cholesterol, HDL and triglyceride)?
The value was 58%.

And the “VLDL (%) ↓ reduction” value ([2]; VLDL calculated from total cholesterol, HDL and triglyceride)?
The value was 79%.
